# Laboratory results as given in PubChem BioAssay AID782 (Emory University Molecular Libraries Screening Center, 2007).
# By UniProt entry, the sequences of proteins in these tests, tags left out.
# UniProt P63073, whole entry, looked up: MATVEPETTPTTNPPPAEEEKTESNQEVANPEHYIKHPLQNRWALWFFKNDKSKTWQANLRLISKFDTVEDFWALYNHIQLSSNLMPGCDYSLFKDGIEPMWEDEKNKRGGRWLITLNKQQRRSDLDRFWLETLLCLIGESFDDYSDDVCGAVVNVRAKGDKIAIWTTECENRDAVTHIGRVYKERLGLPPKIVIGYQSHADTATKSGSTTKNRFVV
# UniProt Q04637, whole entry, looked up: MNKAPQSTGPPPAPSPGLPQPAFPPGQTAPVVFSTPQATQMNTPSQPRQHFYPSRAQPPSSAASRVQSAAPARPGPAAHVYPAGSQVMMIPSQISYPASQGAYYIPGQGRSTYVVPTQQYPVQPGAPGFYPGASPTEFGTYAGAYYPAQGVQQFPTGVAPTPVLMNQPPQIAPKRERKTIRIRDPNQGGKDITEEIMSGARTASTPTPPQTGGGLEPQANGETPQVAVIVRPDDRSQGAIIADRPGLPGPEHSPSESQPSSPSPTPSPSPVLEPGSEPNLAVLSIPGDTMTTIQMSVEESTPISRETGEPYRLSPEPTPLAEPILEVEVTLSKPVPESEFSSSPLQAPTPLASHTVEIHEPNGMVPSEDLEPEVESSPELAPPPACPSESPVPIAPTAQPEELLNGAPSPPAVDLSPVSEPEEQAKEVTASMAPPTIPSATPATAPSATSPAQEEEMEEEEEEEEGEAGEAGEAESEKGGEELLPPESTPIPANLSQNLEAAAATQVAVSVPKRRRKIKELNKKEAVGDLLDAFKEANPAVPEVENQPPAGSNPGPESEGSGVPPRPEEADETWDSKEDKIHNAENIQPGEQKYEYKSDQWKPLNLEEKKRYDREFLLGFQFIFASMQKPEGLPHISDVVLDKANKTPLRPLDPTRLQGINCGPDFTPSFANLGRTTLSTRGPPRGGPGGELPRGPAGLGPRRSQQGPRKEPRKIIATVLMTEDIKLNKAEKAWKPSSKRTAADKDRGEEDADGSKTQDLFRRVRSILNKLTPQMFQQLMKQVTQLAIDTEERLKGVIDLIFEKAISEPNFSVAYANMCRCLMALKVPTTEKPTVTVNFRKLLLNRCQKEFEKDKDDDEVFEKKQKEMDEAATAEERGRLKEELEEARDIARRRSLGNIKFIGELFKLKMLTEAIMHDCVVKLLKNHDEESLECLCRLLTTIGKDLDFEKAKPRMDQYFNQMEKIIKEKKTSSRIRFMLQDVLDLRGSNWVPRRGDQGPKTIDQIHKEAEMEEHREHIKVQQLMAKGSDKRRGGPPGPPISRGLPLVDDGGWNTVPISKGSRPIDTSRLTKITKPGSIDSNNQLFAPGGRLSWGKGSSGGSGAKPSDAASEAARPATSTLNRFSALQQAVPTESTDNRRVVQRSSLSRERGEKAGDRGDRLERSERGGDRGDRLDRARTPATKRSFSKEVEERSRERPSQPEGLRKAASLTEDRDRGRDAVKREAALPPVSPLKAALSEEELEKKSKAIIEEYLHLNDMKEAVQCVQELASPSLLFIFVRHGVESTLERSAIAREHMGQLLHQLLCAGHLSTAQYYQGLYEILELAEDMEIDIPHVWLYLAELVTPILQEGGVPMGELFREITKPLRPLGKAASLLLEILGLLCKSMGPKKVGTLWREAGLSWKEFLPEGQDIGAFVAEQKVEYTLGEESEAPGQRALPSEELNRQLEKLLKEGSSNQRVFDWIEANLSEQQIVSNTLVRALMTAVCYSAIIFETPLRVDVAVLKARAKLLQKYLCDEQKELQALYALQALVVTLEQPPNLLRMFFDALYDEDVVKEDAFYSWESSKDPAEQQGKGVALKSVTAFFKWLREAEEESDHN
# Values joined by “and” are separate entries in the source; they are usually repeats but may differ in a detail not shown here. Identical values can stand only once. The list shows a part of the results, in another mix than the full data. Active and inactive are the calls of the source.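 The calls were made as follows: active = inhibition above about 30% (limit read from the data); inactive = the rest.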
# Molecular target: Eukaryotic translation initiation factor 4E (Mus musculus) + Eukaryotic translation initiation factor 4 gamma 1 (Homo sapiens) (UniProt P63073+Q04637)
# Assay: blockers of eIF4G binding by eIF4E – biochemical, uHTS, TR-FRET, eIF4GI fragment, primary screen (AID 782);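 also: 0% = full FRET control wells and 100% = background wells lacking eIF4GI fragment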
# Conditions: TR-FRET eIF4E-eIF4GI(517-606) binding, 2 h; at 21.7 µM; stronger effect = higher value
row,SMILES,inhibition
1,COP1(=S)c2c(C)nn(CCC#N)c2N=C(c2ccc(F)cc2)N1C (configuration not stated),inactive: 3.77%
2,O=C(COc1ccccc1)OC1CN2CCC1CC2 (configuration not stated),inactive: -8.03%
3,CCOC(=O)c1ccc(NC(=O)C(C)(CCl)SC)cc1 (configuration not stated),inactive: -2.94%
4,CCC(C)N(CC(C)C)C(=S)SC(NC(C)=O)C(Cl)(Cl)Cl (configuration not stated),inactive: -5.94%
5,CCOC(=O)Nc1ccc([As](=O)(O)O)c(O)c1,inactive: -3.53%
6,Cc1cc(SC(NC(=O)c2ccccc2)C(Cl)(Cl)Cl)nc(C(C)C)n1 (configuration not stated),inactive: -1%
7,CCOC(=O)Nc1cccc([As](=O)(O)O)c1,inactive: 0.87%
8,O=P(Nc1ccccn1)(c1cccc2ccccc12)c1cccc2ccccc12,inactive: -5.53%
9,Cc1cc(SC(NC=O)C(Cl)(Cl)Cl)ncn1 (configuration not stated),inactive: -0.87%
10,O=[N+]([O-])c1ccc(Nc2ccc(Oc3ccc([N+](=O)[O-])cc3[N+](=O)[O-])cc2)c([N+](=O)[O-])c1,inactive: 4.23%
11,O=C(Nc1cc([As](=O)(O)O)ccc1O)c1ccccc1,inactive: -2.41%
12,O=[N+]([O-])c1ncn(CCn2ncnc2[N+](=O)[O-])n1,inactive: -3.31%
13,CC(C)(C)C(=O)NC(Sc1ccncn1)C(Cl)(Cl)Cl (configuration not stated),inactive: 7.23%
14,O=C(O)CNc1ccc([As](=O)(O)O)cc1,inactive: -5.8%
15,O=[N+]([O-])c1cccc(NC2=NCC(CBr)S2)c1 (configuration not stated),inactive: 1.67%
16,COc1ccc(C2=NCC(CBr)S2)cc1 (configuration not stated),inactive: 0.3%
17,CCc1nc2c(n1)c1c(non1O)c1c2no[n+]1[O-],inactive: -8.3%
18,O=[N+]([O-])c1cc([N+](=O)[O-])c(CCNc2ccccc2)c([N+](=O)[O-])c1,inactive: 2.43%
19,Cc1ccc(NP(=O)(Oc2ccccc2)Oc2ccccc2)nc1,inactive: -1.59%
20,O=[N+]([O-])c1cccc2n[nH]nc12,inactive: 7.13%
21,CC(=O)N1C2C3N(C(C)=O)C1C1N(C(C)=O)C(C(N1C(C)=O)N3C(C)=O)N2C(C)=O,inactive: 4.16%
22,CCN(/C(=N/P(=O)(N1CCOCC1)N1CCOCC1)N1CCOCC1)c1ccc(OC)cc1,inactive: 1.18%
23,C[N+]1=C2C=CC=CC=C2SC12C([N+](=O)[O-])=CC([N+](=O)[O-])=C[C-]2[N+](=O)[O-] (configuration not stated),inactive: 6.98%
24,Nc1ccc([As](=O)(O)c2ccc(N)cc2)cc1,inactive: 0.27%
25,CC1CCN(C(=O)Oc2c(Cl)cc(Cl)c3cccnc23)CC1,inactive: 1.47%
26,CN(C)C(=O)OCCc1n(C)cc[n+]1C,inactive: 22.1%

row,SMILES,inhibition
1,CC(C)=N/N=C(\N)N[N+](=O)[O-],inactive: 1.89%
2,Cc1ccc(N/C(=N/P(=O)(N2CCOCC2)N2CCOCC2)N2CCOCC2)cc1,inactive: 0.31%
3,NC(=O)c1cc([N+](=O)[O-])cc([N+](=O)[O-])c1N,inactive: -2.28%
4,CN1CCCC(OC(=O)C(c2ccccc2)c2ccccc2)C1 (configuration not stated),inactive: -4.23%
5,Clc1ccc(Cl)c(NC2=NCC(CBr)S2)c1 (configuration not stated),inactive: 2.66%
6,Cc1ccc(OP(=O)(Nc2nccs2)Oc2ccc(C)cc2)cc1,inactive: 0.27%
7,COc1ccccc1OP(=O)(Nc1ccc(C)cn1)Oc1ccccc1OC,inactive: 1.42%
8,O=C(NC(Sc1ccncn1)C(Cl)(Cl)Cl)c1ccccc1 (configuration not stated),active: 48.4%
9,Cc1c2non([O-])c-2c(C)[n+](=O)[n+]1[O-],inactive: -4%
10,Oc1ccccc1CNc1ccccn1,inactive: 3.09%
11,Nc1cc(N)c2nonc2c1[N+](=O)[O-],inactive: 0.27%
12,CC(C)CC(=O)NC(Sc1ccc(Cl)cc1)C(Cl)(Cl)Cl (configuration not stated),inactive: -8.81%
13,O=P(Nc1nc2ccc(Cl)cc2s1)(c1ccccc1)c1ccccc1,inactive: -2.36%
14,CC(=O)Nc1ccc([As](=O)(O)O)cc1,inactive: -10%
15,O=C(O)c1ccccc1[As](=O)(O)O,inactive: 5.05%
16,Cc1ccc(NP(=O)(Oc2ccccc2F)Oc2ccccc2F)nc1,inactive: -1.65%
17,Cc1cc(SC(NC(=O)c2ccc(F)cc2)C(Cl)(Cl)Cl)ncn1 (configuration not stated),inactive: 6.8%
18,CCOP(=O)(Nc1ccccc1)OCC,inactive: 4.38% and inactive: -1.22%
19,Nc1cccc2ccc([As](=O)(O)O)cc12,inactive: -5.47%
20,CCN(N=Nc1nonc1N)c1nonc1N,inactive: -1.61%
21,CCOC(=O)NC(Sc1ccccc1)C(Cl)(Cl)Cl (configuration not stated),inactive: 5.89%
22,Cc1ccc(NP(=O)(Oc2cccc(C)c2)Oc2cccc(C)c2)nc1,active: 96.9%
23,c1ccc(-c2nn[nH]n2)c(-c2nn[nH]n2)c1,inactive: 3.86%
24,CCNC(=S)/N=C(\N)N[N+](=O)[O-],inactive: -3.79%
25,O=C(NC1CCS(=O)(=O)C1)NP(=S)(Oc1ccccc1)Oc1ccccc1 (configuration not stated),inactive: 3.58%
26,CCC(=O)N1C2C3N(C(=O)CC)C1C1N(C(=O)CC)C(C(N1C(=O)CC)N3C(=O)CC)N2C(=O)CC,inactive: 1.58%
